Species on record: Homo sapiens
Assay: Selectivity index, ratio of IC50 for human MAOA to IC50 for human MAOB
Summary of the method: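 Selectivity index was computed as IC50 (MAO-A)/IC50 (MAO-B), each IC50 being the mean of three experiments.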

Ratio IC50 | SMILES
147 | O=Cc1cccc(OCc2ccc(Br)cc2)c1
> 286 | Brc1ccc(COc2cccc(Br)c2)cc1

— ChEMBL document CHEMBL4138066, “Synthesis and evaluation of small molecules bearing a benzyloxy substituent as novel and potent monoamine oxidase inhibitors” (Medchemcomm, 2017)
